Data set [1] deals with T1, hGLP1R (Homo sapiens, UniProt P43220).
T1 construct: expressed in transfected cells; host or cells: HEK-293 CRE-luciferase reporter cells
Briefly: hGLP1R CreLuc assay in 0.5% and 100% plasma (HEK-293 CRE-luciferase reporter cells). It counts as cell-based. The text has this: (§1) CHO and HEK-293 recombinant cell lines express a luciferase reporter gene under control of the CAMP responsive element (CRE). As a second recombinant protein the GLP-1 and NPY2 receptors were expressed in the reporter gene HEK cells, and the GIP receptor was expressed in the reporter gene CHO cells, respectively. Stimulation of these recombinant cells with an agonist leads to an increase of intracellular CAMP levels. In the presence of CAMP, the transcription factor CRE binding protein (CREB) binds to the CRE and to the CREB binding protein (CBP), which leads to transcription of the luciferase reporter gene. Peptides upon serial-dilution in 100% DMSO were transferred into 384-well assay plates with 5 μl pre-dispensed assay buffer (1×HBSS, 20 mM HEPES, pH7.4 supplemented with 0.5% human plasma) using acoustic dispensing on a Labcyte ECHO. Cryo-preserved transgenic reporter gene cells were thawed in assay buffer. 20 μl (10.000 cells/well) were added to the plate with the peptides and incubated for 4 hours at 37° C. in a humidified incubator. Following incubation, assay plates are equilibrated to room temperature, followed by addition of 25 μl of Bright-Glo™ Luciferase reagent, incubation at room temperature for 10 minutes and analysis of luminescence (Envision Reader). […] EC50 values were calculated by non-linear regression using sigmoid concentration-response with variable slope.
(§2) The same assays were run in the presence of 100% plasma with no additional buffer constituents.

Protein sequences, listed by entry. Tags and fused reporters are not part of them. Residues count along the entry.
UniProt P43220, 24-463: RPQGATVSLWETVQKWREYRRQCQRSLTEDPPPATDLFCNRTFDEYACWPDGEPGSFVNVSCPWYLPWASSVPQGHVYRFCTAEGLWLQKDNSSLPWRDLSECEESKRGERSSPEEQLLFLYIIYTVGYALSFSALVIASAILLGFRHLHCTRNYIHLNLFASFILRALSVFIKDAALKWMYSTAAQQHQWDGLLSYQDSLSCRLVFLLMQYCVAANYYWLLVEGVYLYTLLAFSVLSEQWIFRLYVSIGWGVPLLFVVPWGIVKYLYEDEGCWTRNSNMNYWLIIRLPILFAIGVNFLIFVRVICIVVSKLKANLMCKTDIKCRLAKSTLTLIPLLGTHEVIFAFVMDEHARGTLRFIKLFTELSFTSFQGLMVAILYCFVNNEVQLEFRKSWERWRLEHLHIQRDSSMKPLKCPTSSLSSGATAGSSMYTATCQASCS
UniProt P49146, whole entry: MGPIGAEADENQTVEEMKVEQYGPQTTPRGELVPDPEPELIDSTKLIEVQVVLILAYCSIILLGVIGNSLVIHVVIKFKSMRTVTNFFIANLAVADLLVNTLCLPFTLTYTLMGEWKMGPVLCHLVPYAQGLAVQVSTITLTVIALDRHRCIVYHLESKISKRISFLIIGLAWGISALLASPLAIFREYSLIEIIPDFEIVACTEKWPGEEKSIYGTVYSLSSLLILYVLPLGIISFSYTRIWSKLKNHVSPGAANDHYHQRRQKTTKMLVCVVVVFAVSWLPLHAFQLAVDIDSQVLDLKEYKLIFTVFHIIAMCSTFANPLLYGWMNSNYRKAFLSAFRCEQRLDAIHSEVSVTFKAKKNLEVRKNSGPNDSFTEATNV

The target of data set [2] is T2, hGIPR (Homo sapiens, UniProt P48546).
T2 construct: expressed in transfected cells; host or cells: CHO CRE-luciferase reporter cells
T2 sequence (P48546 22-466): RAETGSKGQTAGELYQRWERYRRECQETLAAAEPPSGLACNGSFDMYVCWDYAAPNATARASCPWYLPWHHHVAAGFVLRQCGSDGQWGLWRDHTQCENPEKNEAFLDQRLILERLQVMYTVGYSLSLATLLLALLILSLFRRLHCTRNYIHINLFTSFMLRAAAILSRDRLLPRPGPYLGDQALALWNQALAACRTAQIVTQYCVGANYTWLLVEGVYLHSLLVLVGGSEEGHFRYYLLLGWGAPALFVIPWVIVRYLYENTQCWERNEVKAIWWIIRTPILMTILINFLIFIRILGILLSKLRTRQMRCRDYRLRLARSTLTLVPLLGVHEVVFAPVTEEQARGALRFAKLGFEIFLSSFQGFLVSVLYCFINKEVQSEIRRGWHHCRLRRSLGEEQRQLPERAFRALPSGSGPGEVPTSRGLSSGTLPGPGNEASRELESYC
Briefly: hGIPR CreLuc assay in 0.5% and 100% plasma (CHO CRE-luciferase reporter cells). In kind it is cell-based.
Description: as §1, §2

For data set [3], the target named is T3, hNPY2R (Homo sapiens, UniProt P49146).
T3 construct: expressed in transfected cells; host or cells: HEK-293 CRE-luciferase reporter cells
Briefly: hNPY2R CreLuc assay in 0.5% and 100% plasma (HEK-293 CRE-luciferase reporter cells). In kind it is cell-based.
Description: as §1, §2
Background: Reporter assays use an easily measured gene product as a stand-in for the process of interest.

The nature of data set [4]: Solubility in 0.1 M phosphate buffer at pH 7. In kind it is physicochemical. The settings on record: 0.1 M phosphate buffer at pH 7, 10 mg/mL final peptide concentration, shaking 2 hours at room temperature, peptides as TFA-salts; measured sample pH 6.5-7.0. On the procedure: Peptides (as TFA-salts) were weighed out in a filter unit (Mini-UniPrep Syringeless Filter 0.45 μm, Whatman PVDF), and 0.1 M phosphate buffer at pH 7 was added to achieve 10 mg/mL final peptide concentration. The peptides were dissolved by shaking the filter units horizontally at 600 rpm for 2 hours at room temperature. Samples were then filtered to remove any insoluble particles. Controls were prepared by weighing out the corresponding peptide solid material and dissolving it in an appropriate vehicle (e.g. ACN:H2O) to a final concentration of 1 mg/mL. Both, the control and sample were analyzed by reversed phase chromatography. The area under the peak of the sample was compared to the control and the solubility was calculated based on that ratio. The pH was measured and recorded for each sample.

pEC50: −log10 of the molar value. Read-outs that look alike come from different tables or passages of the source.

As a reminder, the Solubility is the concentration that dissolves in the medium under given conditions. In the case of “Y-Aib-E-G-T-F-T-S-D-Y-S-I-Aib-L-E-K-Q-A-E-Aib-A-F-V-R-H-L-I-N-K(1,3)-Aib-T-R-Q-R-Y-NH2.C20DA-gGlu-gGlu-gGlu-gGlu-OEG-gGlu-eLys(1,2) [Compound 148]”, the pEC50 was 8.49 in data set [1] (read-out: hGLP1R 0.5% hP, 0.5% human plasma, HEK-293 reporter cells); 8.41 in data set [1] (read-out: hGLP1R 100% hP, 100% human plasma, HEK-293 reporter cells); 9.10 in data set [2] (read-out: hGIPR 0.5% hP, 0.5% human plasma); 7.76 in data set [2] (read-out: hGIPR 100% hP, 100% human plasma); 8.02 in data set [3] (read-out: hNPY2R 0.5% hP, 0.5% human plasma, HEK-293 reporter cells); 7.17 in data set [3] (read-out: hNPY2R 100% hP, 100% human plasma, HEK-293 reporter cells). For the same substance, in data set [4], the “Solubility” value was found to be 8600 µg/mL.

The record behind these values is patent US20250382344A1, “Soluble GLP1/GIP/NPY2 Receptor Triple Agonists” (Boehringer Ingelheim International GmH, priority 2024, published 2025).
